Assay results from patent US20230391778A1, “INDOLIN-2-ONE OR PYRROLO -PYRIDIN -2 -ONE DERIVATIVES” (Hoffmann-La Roche Inc., priority 2014, published 2023).

Target: T1, mouse ENT-1 transporter (Mus musculus, UniProt Q9JIM1)
T1 construct: expressed in transfected cells
T1 sequence (Q9JIM1 1-460): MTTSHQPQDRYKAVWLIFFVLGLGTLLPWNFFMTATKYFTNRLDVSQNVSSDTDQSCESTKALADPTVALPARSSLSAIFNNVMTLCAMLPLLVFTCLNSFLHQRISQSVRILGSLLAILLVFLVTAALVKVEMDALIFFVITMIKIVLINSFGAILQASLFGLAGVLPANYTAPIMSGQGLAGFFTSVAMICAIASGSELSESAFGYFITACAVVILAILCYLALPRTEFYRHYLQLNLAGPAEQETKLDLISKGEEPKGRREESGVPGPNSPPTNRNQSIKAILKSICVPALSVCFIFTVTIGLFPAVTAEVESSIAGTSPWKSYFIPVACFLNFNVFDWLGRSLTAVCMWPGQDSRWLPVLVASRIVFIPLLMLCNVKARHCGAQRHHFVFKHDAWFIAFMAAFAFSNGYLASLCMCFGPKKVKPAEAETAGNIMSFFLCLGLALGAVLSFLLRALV
Assay: Measure of adenosine transport activity (ENT1 adenosine uptake inhibition)
Assay type: cell-based
Conditions: stable cells expressing mouse ENT-1, [2,8-3H]-adenosine 6 nM, 20 min
Description: To measure adenosine transport activity of ENT-1 mammalian cells, stable cells expressing the mouse ENT-1 transporter were plated on day 1 in 96-well culture plates at the density of 60,000 cells/well, in complete DMEM/F12 medium supplemented with glutamax, 10% FBS and 10 μg/ml puromycin. On day 2, the medium was aspirated and the cells were washed twice with uptake buffer (10 mM Hepes-Tris, pH 7.4 containing 150 mM NaCl, 1 mM CaCl2), 2.5 mM KCl, 2.5 mM MgSO4, 10 mM D-glucose) (UB). For inhibition experiments, cells were then incubated at RT with various concentrations of compounds with 1% DMSO final. Non-specific uptake was defined in the presence of 10 μM S-(4-Nitrobenzyl)-6-thioinosine (NBTI, Sigma Cat #N2255).
The plates were then incubated for 20 min with gentle shaking and the reaction was stopped by aspiration of the mixture and washing (three times) with ice-cold UB. The cells were lysed by the addition of scintillation liquid, shaken 3 hours and the radioactivity in the cells was estimated using a microplates scintillation counter (TopCount NXT, Packard).

## 2-(3-(3,3-dimethyl-6-(2-methylpyrimidin-5-yl)-2-oxoindolin-1-yl)-1H-pyrazol-1-yl)-N,N-dimethylacetamide [Example 141]
  IC50: 1120 nM
